# Measurements published in ChEMBL document CHEMBL5113471 (Eur J Med Chem, 2022).
# Sequences of proteins named here, by UniProt entry; tags and fusion partners are left off.
# UniProt P09874, whole entry: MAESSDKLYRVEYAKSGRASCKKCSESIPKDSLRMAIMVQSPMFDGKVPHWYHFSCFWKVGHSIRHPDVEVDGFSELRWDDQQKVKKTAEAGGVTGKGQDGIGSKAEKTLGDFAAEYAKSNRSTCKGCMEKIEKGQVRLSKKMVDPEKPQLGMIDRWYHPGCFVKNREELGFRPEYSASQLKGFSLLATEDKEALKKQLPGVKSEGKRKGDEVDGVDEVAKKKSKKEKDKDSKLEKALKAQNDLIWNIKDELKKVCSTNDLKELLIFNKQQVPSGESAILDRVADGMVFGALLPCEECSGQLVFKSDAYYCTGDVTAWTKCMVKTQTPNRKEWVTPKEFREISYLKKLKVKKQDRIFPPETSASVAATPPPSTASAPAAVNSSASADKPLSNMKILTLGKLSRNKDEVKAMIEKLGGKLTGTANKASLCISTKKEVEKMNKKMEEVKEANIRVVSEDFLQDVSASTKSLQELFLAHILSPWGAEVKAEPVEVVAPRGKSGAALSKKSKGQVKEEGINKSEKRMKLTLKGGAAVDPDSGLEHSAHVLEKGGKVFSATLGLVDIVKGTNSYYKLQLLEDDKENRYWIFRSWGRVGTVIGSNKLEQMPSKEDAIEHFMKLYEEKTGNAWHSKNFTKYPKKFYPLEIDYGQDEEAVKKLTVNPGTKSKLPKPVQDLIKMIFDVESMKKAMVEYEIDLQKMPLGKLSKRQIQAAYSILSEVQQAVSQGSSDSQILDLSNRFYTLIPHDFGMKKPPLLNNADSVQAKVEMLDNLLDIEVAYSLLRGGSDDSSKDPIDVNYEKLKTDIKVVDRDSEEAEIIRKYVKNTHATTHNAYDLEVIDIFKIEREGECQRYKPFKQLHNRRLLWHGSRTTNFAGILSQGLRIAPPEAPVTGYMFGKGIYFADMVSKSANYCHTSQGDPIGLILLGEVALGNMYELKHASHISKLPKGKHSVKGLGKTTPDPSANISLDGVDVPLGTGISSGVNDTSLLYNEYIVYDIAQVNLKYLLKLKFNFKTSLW
# Biological target: Poly [ADP-ribose] polymerase 1 (Homo sapiens, UniProt P09874)
# Assay: Potency index, ratio of olaparib IC50 to test compound IC50 for human recombinant PARP1
compound,measurement,value
C=C1C(=O)OC2C[C@@]3(C)CCC=C(COC(=O)CCN(C)C(=O)c4cc(Cc5n[nH]c(=O)c6ccccc56)ccc4F)C3=CC12 (stereo partly specified),Ratio IC50,5
